Assay [1] has as its target T. brucei DHFR (Tsf-TbDHFR-TS) (Trypanosoma brucei brucei, UniProt Q27783). Nature of the assay: Inhibition of DHFR activity of recombinant Tsf-TbDHFR-TS (spectrophotometric, 340 nm).
The next assay deals with Human TS. The note with it: ref Shih et al. [11]; cited from earlier work.

Sequences of proteins named here, by UniProt entry; tags and fusion partners are left off. A change or cut given only in a name is not applied to a line headed by its entry.
UniProt Q27783: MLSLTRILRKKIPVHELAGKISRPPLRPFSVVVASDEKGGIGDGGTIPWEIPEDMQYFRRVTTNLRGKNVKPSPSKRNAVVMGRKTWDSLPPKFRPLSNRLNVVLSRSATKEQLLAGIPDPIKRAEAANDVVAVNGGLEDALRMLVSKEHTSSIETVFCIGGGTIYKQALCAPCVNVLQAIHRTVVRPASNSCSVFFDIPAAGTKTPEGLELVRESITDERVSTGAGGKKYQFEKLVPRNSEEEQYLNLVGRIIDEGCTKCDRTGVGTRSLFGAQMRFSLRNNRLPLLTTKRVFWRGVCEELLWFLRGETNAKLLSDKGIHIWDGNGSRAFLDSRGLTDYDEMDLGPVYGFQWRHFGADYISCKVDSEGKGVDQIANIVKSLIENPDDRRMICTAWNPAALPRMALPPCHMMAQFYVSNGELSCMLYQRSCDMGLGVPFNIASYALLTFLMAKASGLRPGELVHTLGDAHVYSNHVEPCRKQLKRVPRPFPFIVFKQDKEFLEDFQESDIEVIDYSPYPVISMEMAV

SMILES strings stand for the structures.

For `CCc1nc(N)nc(N)c1-c1ccc(Cl)cc1` [Pyrimethamine, pyrimethamine], the inhibition constant (Ki) in assay [1] (DHFR Ki (competitive inhibition, global fit, Fig 5), varying DHF, fixed amounts of inhibitor, non-linear regression) was 0.0176 ± 0.0023 µM; in assay [1] (DHFR Ki, T. brucei, recombinant TbDHFR-TS, from IC50 (Cheng-Prusoff) or Morrison equation for tight binders, Inactive ** = no inhibition at 100 μM), 0.00635 ± 0.00049 µM.

On to `Nc1nc2[nH]cc(CCc3ccc(C(=O)N[C@@H](CCC(=O)O)C(=O)O)cc3)c2c(=O)[nH]1` [Pemetrexed, pemetrexed], for which the Ki at Human TS is 0.11 µM.

(Values after publication PMC4866688, “Trypanosoma brucei DHFR-TS Revisited: Characterisation of a Bifunctional and Highly Unstable Recombinant Dihydrofolate Reductase-Thymidylate Synthase” (PLoS Neglected Tropical Diseases, 2016).)
